Laboratory results reported in patent US20230226034A1, “PROPHYLACTIC OR THERAPEUTIC AGENT FOR PHOTODERMATOSIS” (MITSUBISHI TANABE PHARMA CORPORATION, priority 2020, published 2023).

Amino acid sequences for entries named in this document (tags omitted). A change or cut given only in a name is not applied to a line headed by its entry.
UniProt Q01727: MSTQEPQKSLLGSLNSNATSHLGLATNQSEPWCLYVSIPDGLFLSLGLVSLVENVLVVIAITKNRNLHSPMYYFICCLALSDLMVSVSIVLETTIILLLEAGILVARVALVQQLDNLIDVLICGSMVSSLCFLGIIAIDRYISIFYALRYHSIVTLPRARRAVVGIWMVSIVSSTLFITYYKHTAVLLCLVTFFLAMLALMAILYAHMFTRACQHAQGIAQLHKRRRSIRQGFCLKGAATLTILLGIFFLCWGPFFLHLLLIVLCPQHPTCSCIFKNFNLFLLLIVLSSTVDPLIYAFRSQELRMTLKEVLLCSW

Molecular target: mouse MC1R (Mus musculus, UniProt Q01727)
Conditions: read-out: EC50 (nmol/L) mMC1R; cAMP in HEK293 cells stably expressing mouse MC1R; one-half of Emax of αMSH

Substance: αMSH [reference compound]
- EC50: 3.17 nmol/L
